The assay concerns the target PI3Kδ (p110δ/p85α) Recombinant Human Protein (Homo sapiens (Human), UniProt O00329). Briefly: PI3Kδ scintillation proximity assay. Type of assay: biochemical. The settings on record: Table B, Assay C.

Protein sequences, listed by entry. Tags and fused reporters are not part of them. Lines headed by an entry give the natural chain unless they say otherwise; changes in a name come on top.
UniProt O00329: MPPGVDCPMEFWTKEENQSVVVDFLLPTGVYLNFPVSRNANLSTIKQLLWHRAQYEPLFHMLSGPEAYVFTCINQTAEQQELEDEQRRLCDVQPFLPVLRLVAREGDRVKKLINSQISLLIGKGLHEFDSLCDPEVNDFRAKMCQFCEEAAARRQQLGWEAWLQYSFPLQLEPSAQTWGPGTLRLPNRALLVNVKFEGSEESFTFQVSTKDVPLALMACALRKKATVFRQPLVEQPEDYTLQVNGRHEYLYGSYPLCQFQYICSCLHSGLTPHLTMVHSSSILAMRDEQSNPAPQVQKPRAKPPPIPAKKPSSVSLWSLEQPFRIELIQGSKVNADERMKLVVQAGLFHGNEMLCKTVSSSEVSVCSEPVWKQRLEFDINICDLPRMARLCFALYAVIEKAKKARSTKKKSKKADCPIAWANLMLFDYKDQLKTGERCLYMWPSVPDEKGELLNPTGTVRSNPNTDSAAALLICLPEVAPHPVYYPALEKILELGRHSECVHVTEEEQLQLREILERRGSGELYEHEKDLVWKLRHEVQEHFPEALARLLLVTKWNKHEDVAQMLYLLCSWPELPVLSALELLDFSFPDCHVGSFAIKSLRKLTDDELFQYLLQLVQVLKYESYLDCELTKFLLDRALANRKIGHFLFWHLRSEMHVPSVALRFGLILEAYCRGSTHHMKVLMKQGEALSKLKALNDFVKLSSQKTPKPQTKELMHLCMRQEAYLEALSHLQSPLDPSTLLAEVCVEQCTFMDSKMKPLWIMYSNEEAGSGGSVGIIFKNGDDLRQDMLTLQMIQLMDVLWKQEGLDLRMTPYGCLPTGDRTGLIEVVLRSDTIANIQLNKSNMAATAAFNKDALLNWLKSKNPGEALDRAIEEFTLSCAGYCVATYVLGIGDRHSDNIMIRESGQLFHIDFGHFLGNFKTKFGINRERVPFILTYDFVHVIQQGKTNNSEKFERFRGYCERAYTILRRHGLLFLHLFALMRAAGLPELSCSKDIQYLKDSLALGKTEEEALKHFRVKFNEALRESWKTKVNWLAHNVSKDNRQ

A value given as a limit tells only on which side of the number the result lay.

Turning to `CC(Nc1ncnc2[nH]cnc12)c1cc(Cl)c2ccnnc2c1-c1cccc(F)c1` (single isomer, unassigned) [Example 33, N-{1-[5-chloro-8-(3-fluorophenyl)cinnolin-7-yl]ethyl}-9H-purin-6-amine], the IC50 is less than 50 nM.

The values are drawn from patent US10065963B2 (Incyte Corporation, priority 2015, dated 2018).
